Measured values: ChEMBL document CHEMBL1155226, “Design, synthesis, and structure-activity relationship of a novel series of 2-aryl 5-(4-oxo-3-phenethyl-2-thioxothiazolidinylidenemethyl)furans as HIV-1 entry inhibitors” (J Med Chem, 2009)

Experiments:
Assay type in all cases: functional, organism-based
[1] = test system: Human immunodeficiency virus 1; experiment: Antiviral activity against HIV1 3B replication in human MT2 cells exposed to light assessed as inhibition of p24 production after 4 days by ELISA
[2] = test system: Human immunodeficiency virus 1; experiment: Antiviral activity against HIV1 3B replication in human MT2 cells under dark condition assessed as inhibition of p24 production after 4 days by ELISA
[3] = test system: Human immunodeficiency virus 1; experiment: Antiviral activity against HIV1 isolate 94UG103 replication in human PBMC assessed as inhibition of p24 production after 7 days by ELISA

Measured: Activity

O=C(O)c1cc(-c2ccc(/C=C3\SC(=S)N(CCc4ccccc4)C3=O)o2)ccc1O
active: [1] Dose-dependent effect | [2] Dose-dependent effect | [3] Dose-dependent effect

O=C(O)c1cc(-c2ccc(/C=C3\SC(=S)N(CCc4ccccc4)C3=O)o2)cnc1Br
active: [1] Dose-dependent effect | [2] Dose-dependent effect | [3] Dose-dependent effect

O=C(O)c1cc(-c2ccc(/C=C3\SC(=S)N(CCc4ccccc4)C3=O)o2)ccc1F
active: [1] Dose-dependent effect | [2] Dose-dependent effect | [3] Dose-dependent effect

CCc1ccc(-c2ccc(/C=C3\SC(=S)N(CCc4ccccc4)C3=O)o2)cc1C(=O)O
active: [1] Dose-dependent effect | [2] Dose-dependent effect | [3] Dose-dependent effect

Cc1c(C(=O)O)cccc1-c1ccc(/C=C2\SC(=S)N(CCc3ccccc3)C2=O)o1
active: [1] Dose-dependent effect | [2] Dose-dependent effect | [3] Dose-dependent effect

O=C(O)c1cccc(-c2ccc(/C=C3\SC(=S)N(CCc4ccccc4)C3=O)o2)c1Cl
active: [1] Dose-dependent effect | [2] Dose-dependent effect | [3] Dose-dependent effect

O=C(O)c1cc(-c2ccc(/C=C3\SC(=S)N(CCc4ccccc4)C3=O)o2)cnc1Cl
active: [1] Dose-dependent effect | [2] Dose-dependent effect | [3] Dose-dependent effect

Cc1c(C(=O)O)cncc1-c1ccc(/C=C2\SC(=S)N(CCc3ccccc3)C2=O)o1
active: [1] Dose-dependent effect | [2] Dose-dependent effect | [3] Dose-dependent effect

COc1ccc(-c2ccc(/C=C3\SC(=S)N(CCc4ccccc4)C3=O)o2)cc1C(=O)O
active: [1] Dose-dependent effect | [2] Dose-dependent effect | [3] Dose-dependent effect

O=C(O)c1cncc(-c2ccc(/C=C3\SC(=S)N(CCc4ccccc4)C3=O)o2)c1
active: [1] Dose-dependent effect | [2] Dose-dependent effect | [3] Dose-dependent effect

O=C(O)c1cc(-c2ccc(/C=C3\SC(=S)N(CCc4ccccc4)C3=O)o2)ccc1Cl
active: [1] Dose-dependent effect | [2] Dose-dependent effect | [3] Dose-dependent effect

O=C(O)c1cc(-c2ccc(/C=C3\SC(=S)N(CCc4ccccc4)C3=O)o2)ccc1Br
active: [1] Dose-dependent effect | [2] Dose-dependent effect | [3] Dose-dependent effect

O=C(O)c1cccc(-c2ccc(/C=C3\SC(=S)N(CCc4ccccc4)C3=O)o2)c1
active: [1] Dose-dependent effect | [2] Dose-dependent effect | [3] Dose-dependent effect

Cc1ccc(-c2ccc(/C=C3\SC(=S)N(CCc4ccccc4)C3=O)o2)cc1C(=O)O
active: [1] Dose-dependent effect | [2] Dose-dependent effect | [3] Dose-dependent effect

O=C(O)c1cccc(-c2ccc(/C=C3\SC(=S)N(CCc4ccccc4)C3=O)o2)c1F
active: [1] Dose-dependent effect | [2] Dose-dependent effect | [3] Dose-dependent effect
